## Binding of CDR-mutated scFvs to a peptide of the spike HR2 region

Data: MIT Lincoln Laboratory AlphaSeq set, Li et al. 2023, doi:10.1038/s41467-023-39022-2, as distributed in FLAb.

Target peptide (SARS-CoV-2 spike, HR2 region): PDVDLGDISGINAS

Ab-14 is the parent antibody, in scFv form: VH, then a (GGGGS)3 linker, then VL. The light chain is unchanged in all variants.
VH: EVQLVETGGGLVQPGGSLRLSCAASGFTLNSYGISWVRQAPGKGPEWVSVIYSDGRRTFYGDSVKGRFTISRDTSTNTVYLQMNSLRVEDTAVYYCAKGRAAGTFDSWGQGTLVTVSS
VL: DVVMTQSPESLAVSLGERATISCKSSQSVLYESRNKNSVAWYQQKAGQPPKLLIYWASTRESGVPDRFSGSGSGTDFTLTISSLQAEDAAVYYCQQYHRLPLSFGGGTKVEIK

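Phage display of a naive human antibody library on the peptide gave the parent. The variants were designed computationally from a first round of random CDR variants and then made and measured. Group labels follow the data file (Ctrl: baseline library sampled from a position-specific scoring matrix, with some repeated check sequences; Rand: our label for a block that the file lists under HC and that is probably the random mutants of the ten best first-round binders; En: ensemble of fine-tuned language models; GP: Gaussian process model; GPLM: also part of the Gaussian process libraries; HC: hill climbing; Gen: genetic algorithm; Gibbs: Gibbs sampling; a sequence that several methods proposed may carry one label only). Affinity was read by AlphaSeq, a pooled yeast mating assay with surface-displayed partners. Mating (16 h, 30 °C) was followed by selection of diploids and sequencing of their barcodes. Scores were corrected for input abundance and mapped to Kd with protein pairs of known affinity run in the same pool. The assay was run in six technical replicates.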

Substitutions are numbered in sequence along the VH above, starting at 1 (not Kabat).
This list holds designs with at most six substitutions.
Numbers give log10(Kd / nM), so 0 is 1 nM and 3 is 1 µM. Smaller is tighter.
Replicates are averaged; those with no signal do not enter the mean.
"not detected" means that the variant was in the library but no mating with the target was seen in any replicate; the authors take this as a sign of poor binding, and no number exists.
Where one sequence has several entries in the source, the replicates are pooled.
A sequence measured in both rounds can read differently, since the two assays cover different ranges.
Empty control strains, which show no peptide, gave a signal in 1% of pairings with all heavy chain designs; the median was 2.08 and 95% of these signals were weaker than 0.84. No background was subtracted.
In the paper, a design with two or fewer of six values counts as a poor binder.

changes,group,"mean, log10 nM",seen in
G26D N30E A101V,Ctrl,1.56,5/6
S31E G61S R100M S107N,GP_HC,0.17,6/6
S31M G103K S107Q,Ctrl,not detected,0/6
T28W S31E G61K,GP_HC,not detected,0/6
T28N G61A S63M R100Q,GPLM_Gen,1.09,2/6
N30D R56K S107R,GP_HC,1.64,2/6
R56E F105G,Ctrl,not detected,0/6
T28E G61I R100Q A101V,GPLM_Gibbs,0.97,6/6
T28N S63D R100E,GPLM_Gibbs,0.93,6/6
T28N S63R R100Q A101I,GP_Gibbs,2.06,3/6
R56V A101H,Ctrl,2.77,2/6
N30A S31E G61T S63R R100E A101F,Rand,not detected,0/6
G26K T28Q S53A R100E,GP_Gibbs,1.48,6/6
T28W R56L,Ctrl,not detected,0/6
T28S G61A R100M A101T,GPLM_Gen,-0.30,6/6
F27T R56L Y60M G61T R100E,Ctrl,not detected,0/6
I51M R56Q F59A,Ctrl,1.33,6/6
T28E S63A R100K A101T,GP_Gen,0.83,6/6
T28D F59V S63A A101T,GPLM_Gibbs,0.07,6/6
S31E G61D A102G,GP_HC,2.03,5/6
T28S R56L F59S G99Q,Ctrl,3.20,1/6
T28S G61T A101L,GPLM_Gen,0.14,6/6
S31E R100F S107K,GP_HC,0.88,6/6
G61I S63Q F105P D106P S107L,Ctrl,not detected,0/6
S31E R57K D106P,Ctrl,not detected,0/6
F105D S107V,Ctrl,not detected,0/6
T28N S31D,Ctrl,1.39,5/6
T28S S31N S63K A101T,GPLM_Gen,1.02,6/6
T28H G61A S63A A101T,GP_Gibbs,1.53,6/6
T28S S53A S63R D106K,GP_HC,not detected,0/6
G26K R100Q A101T S107V,GP_Gibbs,1.50,1/6
G26T A101H A102G,Ctrl,1.40,1/6
S31D A102L G103M F105K D106I,Rand,not detected,0/6
G61S A101N A102G S107V,Ctrl,1.33,2/6
T28D G61Q S63H A101T,GP_Gen,1.22,4/6
T28N G61D R100Q A101V,GPLM_HC,0.11,5/6
G61N D106F,Ctrl,not detected,0/6
S31E G61A,Ctrl+GPLM_Gen,0.09,12/12
A101N D106T,Ctrl,not detected,0/6
L29N S31Q I34D G61S A102K T104F,Rand,not detected,0/6
S31E T58A G61T A101Y,GP_HC,0.04,6/6
T58K G61I,Ctrl,1.71,5/6
T28Q S31E G61A A101D,GP_HC,0.06,6/6
S31D T58R D62Q G103L D106I,Rand,not detected,0/6
T28D S31E S53A G61A R100H A101V,En_HC,-1.07,5/6
R56W G61S A101T,GPLM_Gibbs,1.14,6/6
T28D G61A A101I,GPLM_Gen,0.33,6/6
T28W F59A R100Q,GP_Gen,1.19,2/6
T28S S31E G61S T104I,GPLM_HC,0.06,6/6
T28R G61F S63Q,Ctrl,not detected,0/6
G26H T28D G61A R100K,GP_Gen,0.56,6/6
R57K G61A S63A A101C,Ctrl,2.29,1/6
T28E F59A S63H A101T,GP_Gibbs,0.78,6/6
T28S G61D R100A,GPLM_Gen,0.25,6/6
S31E A101M S107Q,Ctrl,0.78,6/6
S31D F59Q G61I S63W,Rand,not detected,0/6
F27T T28H S31K F59A G61S G103D,Ctrl,4.02,1/6
S63D R100Q A101E S107T,GP_Gibbs,0.27,6/6
G26Q G61D R100Q A101L,GP_HC,0.03,1/6
T28S S53A D106K,GP_HC,0.52,6/6

The closing 6 entries, repeated:

| changes | group | mean, log10 nM | seen in |
|---|---|---|---|
| S31E A101M S107Q | Ctrl | 0.78 | 6/6 |
| S31D F59Q G61I S63W | Rand | not detected | 0/6 |
| F27T T28H S31K F59A G61S G103D | Ctrl | 4.02 | 1/6 |
| S63D R100Q A101E S107T | GP_Gibbs | 0.27 | 6/6 |
| G26Q G61D R100Q A101L | GP_HC | 0.03 | 1/6 |
| T28S S53A D106K | GP_HC | 0.52 | 6/6 |